Measured vapor pressure values of organic chemicals

From the experimental data distributed with OPERA 2.9.

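The numbers are reported measurements, compiled and curated for the OPERA QSAR suite. The files give a single number for a compound and property, which may rest on several reports. Method, purity and exact conditions of the single measurements are not given. A value may pool stereoisomers or salt forms, and the file does not say which form was measured. Unmarked limits or estimates from the upstream databases cannot be ruled out.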

Vapor pressures (log10 mmHg) refer to near room temperature, 15 to 30 °C; higher is more volatile. "n/a" marks a cell with nothing listed here. The databases behind each value are named after "via".

compound	name	log vapor pressure (log10 mmHg)	via
CCCCOCCO[Si](OCCOCCCC)(OCCOCCCC)OCCOCCCC	Silicic acid (H4SiO4), tetrakis(2-butoxyethyl) ester	-2.87	eChemPortal
C[C@@H]1[C@H](C)CC[C@H]1C (relative stereo)	n/a	1.505	OCHEM
CC(=O)c1ccc(CC(C)C)cc1	Ethanone, 1-[4-(2-methylpropyl)phenyl]-	-2.13	eChemPortal
CCCCCCCCCCCCCCCCCCOC(=O)CCSCCC(=O)OCCCCCCCCCCCCCCCCCC	Distearyl thiodipropionate	-7.309	OFMPub, eChemPortal
Nc1nccnc1C(=O)O	3-Aminopyrazine-2-carboxylic acid	-5.483	eChemPortal
CC(C)CCCCCOC(=O)CCC(=O)OCCCCCC(C)C	Diisooctyl succinate	-4.021	eChemPortal
CC1(C)COC(=O)C2CC=CCC2C(=O)OC1 (stereo not drawn)	n/a	-6.472	eChemPortal
CC(OC(C)(C)COC(=O)C1CC1)C1CCCC(C)(C)C1 (stereo not drawn)	n/a	-1.949	eChemPortal
C/N=C(\c1ccccc1Cl)C1(O)CCCC1	1-(2-Chloro-N-methylbenzimidoyl)cyclopentanol	-3.494	eChemPortal
c1ccc(Nc2cccc3ccccc23)cc1	N-Phenyl-1-naphthylamine	-5.092	OFMPub, eChemPortal
Nc1ccc(C2(c3ccc(N)c(Cl)c3)c3ccccc3-c3ccccc32)cc1Cl	4,4'-(9H-Fluorene-9,9-diyl)bis(2-chloroaniline)	-8.586	eChemPortal
Cc1occc(=O)c1O	Maltol	-2.949	eChemPortal
CCC(CC(C)CC)=NO (stereo not drawn)	N-(5-Methyl-3-heptanylidene)hydroxylamine	-1.271	eChemPortal
CC(C)C(=O)OC(=O)C(C)C	Isobutyric anhydride	-0.19	eChemPortal
CCOC(=O)CC(NC1CCC(CC2CCC(NC(CC(=O)OCC)C(=O)OCC)C(C)C2)CC1C)C(=O)OCC (stereo not drawn)	n/a	-4.862	eChemPortal
OCc1cccnc1	Nicotinyl alcohol	-2.487	eChemPortal
CCCCCCCC/C=C\CCCCCCCC(=O)O.CCCCCCCC/C=C\CCCCCCCCN	n/a	-4.917	eChemPortal
CCCCN(CCO)CCCC	2-N-Dibutylaminoethanol	-1	PubChem, eChemPortal
c1ccc2[nH]cnc2c1	Benzimidazole	-5.625	eChemPortal
CC(C)C(C)(C)[C@@H]1CCC(=O)[C@H](C)C1 (relative stereo)	cis-2-Methyl-4-(1,1,2-trimethylpropyl)cyclohexanone	-2.075	eChemPortal
c1cc(OCC2CO2)cc(N(CC2CO2)CC2CO2)c1 (stereo not drawn)	n/a	-7.487	eChemPortal
CCCCCCC#CC(=O)OC	Methyl 2-nonynoate	-1.253	OCHEM, eChemPortal
COc1cc(C=C(C(C)=O)C(C)=O)cc(OC)c1OC	Trimethoxybenzylidene pentanedione	-6.135	eChemPortal
OC1(c2ccc(Cl)cc2)CCNCC1	4-(4-Chlorophenyl)-4-piperidinol	-7.32	eChemPortal
COC(C)(OC)OC	1,1,1-Trimethoxyethane	1.348	eChemPortal
C=C(C)[C@@H]1CC[C@@H](C)C[C@H]1O	(-)-Isopulegol	-0.966	eChemPortal
CCCCOC(=O)CO	Butyl hydroxyacetate	0	eChemPortal
CCCC[Si](C)(C)O[Si](C)(C)O[Si](C)(C)O[Si](C)(C)O[SiH](C)C	Pentasiloxane, 1-butyl-1,1,3,3,5,5,7,7,9,9-decamethyl-	-1.601	eChemPortal
Cl.O=C(c1ccc(F)cc1)C1CCNCC1	p-Fluorophenyl 4-piperidyl ketone hydrochloride	-8.727	eChemPortal
CC(=O)CC(=O)Nc1ccc(C)cc1C	N-(2,4-Dimethylphenyl)-3-oxobutanamide	-6.357	eChemPortal
CC1(C)CC(O)CC(C)(C)N1	2,2,6,6-Tetramethyl- 4-piperidinol	-2.71	eChemPortal
C=C[Si](C=C)(C=C)C=C	Silane, tetraethenyl-	1.194	eChemPortal
CCC(C)=NO[Si](ON=C(C)CC)(ON=C(C)CC)c1ccccc1	Phenyltris(butanoxime)silane	-4.648	eChemPortal
O=C(n1ccnc1)n1ccnc1	1,1'-Carbonylbis(1H-imidazole)	-4.186	eChemPortal
CC1=CCC(CC#N)C1(C)C (stereo not drawn)	3-Cyclopentene-1-acetonitrile, 2,2,3-trimethyl-	-0.245	eChemPortal
Brc1ccc(Oc2ccc(Br)c(Br)c2)cc1Br	BDE-77	-6.293	OCHEM
CC=CC(C)(O)CCC=C(C)C (stereo not drawn)	4,8-Dimethylnona-2,7-dien-4-ol	-1.222	eChemPortal
CCNC(=O)[C@@H](C)OC(=O)Nc1ccccc1	Carbetamide	-8.648	OCHEM
NC(=O)c1ccccc1N	2-Aminobenzamide	-5.171	eChemPortal
O=C1Cc2ccccc2O1	(3H)-Benzofuran-2-one	-3.011	eChemPortal
OCCOc1ccc2ccccc2c1	2-(2-Naphthalenyloxy)ethanol	-5.652	eChemPortal
CCNc1nc(=O)nc(NC(C)(C)C)[nH]1	Hydroxyterbuthylazine	-8.244	OCHEM
COc1ccc(Cl)c(Cl)c1Cl	2,3,4-Trichloroanisole	-2.706	OCHEM
COC(=O)c1ccc2cc(C(=O)OC)ccc2c1	Dimethyl 2,6-naphthalenedicarboxylate	-5.606	eChemPortal
CC(=O)c1ccc(C)cc1	p-Methylacetophenone	-0.409	eChemPortal
COCCOCCOCC(=O)O	(2-(2-Methoxyethoxy)ethoxy)acetic acid	-3.773	eChemPortal
FC(F)(I)C(F)(F)C(F)(F)C(F)(F)I	Perfluoro-1,4-diiodobutane	0.989	eChemPortal
Nc1ccccc1C(F)(F)F	o-(Trifluoromethyl)aniline	0.197	eChemPortal
Clc1cc(-c2cccc(Cl)c2Cl)cc(Cl)c1Cl	2,3,3',4',5'-Pentachlorobiphenyl	-5.235	OCHEM

A selection of 6 entries from above:

{"smiles": "CC1(C)COC(=O)C2CC=CCC2C(=O)OC1", "stereo": "stereo not drawn", "log vapor pressure (log10 mmHg)": "-6.472", "via": "eChemPortal"}
{"smiles": "COC(=O)c1ccc2cc(C(=O)OC)ccc2c1", "name": "Dimethyl 2,6-naphthalenedicarboxylate", "log vapor pressure (log10 mmHg)": "-5.606", "via": "eChemPortal"}
{"smiles": "CC1=CCC(CC#N)C1(C)C", "stereo": "stereo not drawn", "name": "3-Cyclopentene-1-acetonitrile, 2,2,3-trimethyl-", "log vapor pressure (log10 mmHg)": "-0.245", "via": "eChemPortal"}
{"smiles": "CCOC(=O)CC(NC1CCC(CC2CCC(NC(CC(=O)OCC)C(=O)OCC)C(C)C2)CC1C)C(=O)OCC", "stereo": "stereo not drawn", "log vapor pressure (log10 mmHg)": "-4.862", "via": "eChemPortal"}
{"smiles": "Nc1ccc(C2(c3ccc(N)c(Cl)c3)c3ccccc3-c3ccccc32)cc1Cl", "name": "4,4'-(9H-Fluorene-9,9-diyl)bis(2-chloroaniline)", "log vapor pressure (log10 mmHg)": "-8.586", "via": "eChemPortal"}
{"smiles": "CCCCOCCO[Si](OCCOCCCC)(OCCOCCCC)OCCOCCCC", "name": "Silicic acid (H4SiO4), tetrakis(2-butoxyethyl) ester", "log vapor pressure (log10 mmHg)": "-2.87", "via": "eChemPortal"}